From US20060194321A1, “Directed differentiation of embryonic stem cells and uses thereof” (priority 2005, published 2006)

Tested on: Human embryonic stem cell 3 (hES3)
Assay: pdx-1 expression by quantitative RT-PCR in embryoid bodies in 3D MATRIGEL (initiation protocol)
Type: cell-based
Protocol: Human embryonic stem cell 3 (hES3) were subjected to a multi-step differentiation protocol, as outlined in FIG. 2. The embryonic stem cells were cultured as embryoid bodies suspended in 3D in MATRIGEL™. The cells were cultured for 10 days in medium containing the early factors and then for 10 days in medium containing the late factors. Following culture, cells were assayed for expression of pdx-1.
To establish a baseline for comparison, human embryonic stem cells were differentiated, as described above, in 3-dimensional culture in MATRIGEL™ for 20 days. For the first 10 days the cells were cultured in the presence of early factors (Activin A: 50 ng/ml; BMP2: 50 ng/ml; BMP4: 50 ng/ml; Nodal: 50 ng/ml) and for the second 10 days the cells were cultured in the presence of late factors (Betacellulin: 50 ng/ml; HGF: 50 ng/ml; Exendin-4: 10 ng/ml, Nicotinamide: 10 mM). pdx-1 levels were measured by RT-PCR at various time points during culture of the cells in the 3D MATRIGEL™ protocol. RNA was isolated and analyzed for pdx-1 and actin expression by RT-PCR. Data were standardized in comparison to actin expression, and the results are expressed as absolute g pdx-1/kg Actin expression+/−SD.
We evaluated individual early and late factors. […] The efficacy of BMP4 and Activin A was most dramatic when the late factor mix excluded the poly(ADP-ribose) polymerase inhibitor Nicotinamide. […]

B1: BMP2: early factor, growth factor structurally related to BMP4 (protein, UniProt P12643 283-396, looked up)
Bone morphogenetic protein 2: QAKHKQRKRLKSSCKRHPLYVDFSDVGWNDWIVAPPGYHAFYCHGECPFPLADHLNSTNHAIVQTLVNSVNSKIPKACCVPTELSAISMLYLDENEKVVLKNYQDMVVEGCGCR
pdx-1 expression with EF cocktail lacking the factor versus all four EFs (FIG. 13A, G2 versus G7): slightly greater | contribution of the factor to induction of pdx-1 expression (factor included in or omitted from the early/late factor cocktail, day 20): optional
